Reference: patent publication US20060094649A1, “Hla-a1,-a2,-a3,-a24,-b7, and-b44 tumor associated antigen peptides and compositions” (priority 2002, published 2006)
Where two headings read alike, the source gives them in different places. Each block holds one molecule with its values, some of them ahead of it.

Legend:
HLA-B*4001 = HLA-B*4001 (Homo sapiens, UniProt P01889, A65T/A93T/A95T/D138N/D98Y/E176V/E69K/N87E/Q56L/Q94N/R180L/S121R/S35A/S48T/T167S/V36M/W171L/Y33H/Y91S); test: Class I peptide-binding assay, HLA-B*4001 (B44 supertype); conditions: read-out: B*4001
[1] = system: HLA-B44 supertype molecules; test: HLA-B44 supertype cross-binding; parameters: species or system human; conditions: number of the six B44 supertype alleles bound
HLA-B*4002 = HLA-B*4002 (Homo sapiens, UniProt P01889, A65T/A93T/A95T/D138N/D201E/D98Y/E176V/E204Q/E69K/K202T/N87E/Q56L/Q94N/R180L/S48T/Y33H/Y91S); test: Class I peptide-binding assay, HLA-B*4002 (B44 supertype); conditions: dash cells, read-out: B*4002
[2] = p53-derived B44 peptides, Table 28
[3] = MAGE2-derived B44 peptides, Table 29, dash cells
[4] = MAGE2-derived B44 peptides, Table 29

Structure (SMILES): C[C@H](NC(=O)[C@H](CCC(=O)O)NC(=O)[C@H](CC(=O)O)NC(=O)[C@@H]1CCCN1C(=O)CNC(=O)[C@@H]1CCCN1C(=O)[C@H](CC(=O)O)NC(=O)[C@H](CCC(=O)O)NC(=O)[C@@H](N)[C@@H](C)O)C(=O)O [compound 639]
- IC50 (HLA-B*4002; [2]): > 10 µM
- Degeneracy [1, 2]: 0

Structure (SMILES): CC(C)C[C@H](NC(=O)[C@H](CC(N)=O)NC(=O)[C@H](CCC(=O)O)NC(=O)[C@H](CCC(=O)O)NC(=O)[C@@H](N)CCC(=O)O)C(=O)N[C@@H](CCCNC(=N)N)C(=O)N[C@@H](CCCCN)C(=O)N[C@@H](CCCCN)C(=O)NCC(=O)O [compound 644]
- IC50 (HLA-B*4002; [2]): > 10 µM
- Degeneracy [1, 2]: 0

Structure (SMILES): CC[C@H](C)[C@H](NC(=O)[C@H](CCCCN)NC(=O)[C@H](CCC(=O)O)NC(=O)[C@@H](N)CCC(=O)O)C(=O)N[C@@H](Cc1c[nH]c2ccccc12)C(=O)N[C@@H](CCC(=O)O)C(=O)N[C@@H](CCC(=O)O)C(=O)N[C@@H](CC(C)C)C(=O)N[C@@H](CO)C(=O)N[C@@H](CCSC)C(=O)N[C@@H](CC(C)C)C(=O)O [compound 702]
- IC50 (HLA-B*4002; [4]): > 10 µM

Structure (SMILES): C[C@H](NC(=O)[C@@H](NC(=O)[C@H](CCC(N)=O)NC(=O)[C@H](CCC(N)=O)NC(=O)[C@H](CCC(=O)O)NC(=O)[C@@H](N)CCC(=O)O)[C@@H](C)O)C(=O)N[C@@H](CO)C(=O)N[C@@H](CO)C(=O)N[C@@H](CO)C(=O)N[C@@H](CO)C(=O)N[C@H](C(=O)O)[C@@H](C)O [compound 706]
- IC50 (HLA-B*4002; [4]): > 10 µM

Structure (SMILES): CSCC[C@H](NC(=O)[C@H](CCCNC(=N)N)NC(=O)[C@@H]1CCCN1C(=O)CNC(=O)[C@H](CCC(=O)O)NC(=O)[C@H](CCC(=O)O)NC(=O)[C@@H](N)CCC(=O)O)C(=O)N[C@@H](Cc1ccccc1)C(=O)O [compound 708]
- IC50 (HLA-B*4002; [4]): > 10 µM

Second part, the molecule after the results:

- IC50 (HLA-B*4001; CEA-derived B44 peptides): > 10 µM
- Degeneracy [1]: 2
Structure (SMILES): CC(C)[C@H](NC(=O)[C@H](CCCNC(=N)N)NC(=O)[C@H](Cc1ccccc1)NC(=O)[C@H](CCC(N)=O)NC(=O)CNC(=O)[C@@H](NC(=O)[C@H](C)NC(=O)[C@H](CCC(=O)O)NC(=O)[C@@H](N)CCC(=O)O)[C@@H](C)O)C(=O)N[C@@H](Cc1ccc(O)cc1)C(=O)O

- IC50 (HLA-B*4001; HER2/neu-derived B44 peptides, Table 27, binding to purified HLA-B*4001): 0.262 µM
Structure (SMILES): CC(C)C[C@H](NC(=O)[C@H](Cc1ccc(O)cc1)NC(=O)[C@H](CCC(=O)O)NC(=O)[C@H](CCC(=O)O)NC(=O)[C@H](C)N)C(=O)N[C@H](C(=O)N1CCC[C@H]1C(=O)N[C@@H](CCC(N)=O)C(=O)N[C@@H](CCC(N)=O)C(=O)NCC(=O)N[C@@H](Cc1ccccc1)C(=O)N[C@@H](Cc1ccccc1)C(=O)O)C(C)C [compound 467]

- IC50 (HLA-B*4002; [2]): > 10 µM
Structure (SMILES): N=C(N)NCCC[C@H](NC(=O)[C@H](CCC(=O)O)NC(=O)[C@@H](N)Cc1c[nH]cn1)C(=O)N[C@@H](CS)C(=O)N[C@@H](CO)C(=O)N[C@@H](CC(=O)O)C(=O)N[C@@H](CO)C(=O)N[C@@H](CC(=O)O)C(=O)NCC(=O)O [compound 614]

- IC50 (HLA-B*4001; [3]): > 10 µM
Structure (SMILES): CSCC[C@H](NC(=O)[C@H](CO)NC(=O)[C@H](CC(C)C)NC(=O)[C@H](CCC(=O)O)NC(=O)[C@@H](N)CCC(=O)O)C(=O)N[C@@H](CC(C)C)C(=O)N[C@@H](CCC(=O)O)C(=O)N[C@H](C(=O)N[C@@H](Cc1ccccc1)C(=O)N[C@@H](CCC(=O)O)C(=O)NCC(=O)O)C(C)C [compound 663]

- IC50 (HLA-B*4001; [4]): 0.626 µM
Structure (SMILES): CSCC[C@H](NC(=O)[C@H](CCCNC(=N)N)NC(=O)[C@@H]1CCCN1C(=O)CNC(=O)[C@H](CCC(=O)O)NC(=O)[C@H](CCC(=O)O)NC(=O)[C@H](CCC(=O)O)NC(=O)[C@@H](N)CCC(N)=O)C(=O)N[C@@H](Cc1ccccc1)C(=O)O [compound 688]

- IC50 (HLA-B*4001; [3]): > 10 µM
Structure (SMILES): CC(C)[C@H](NC(=O)[C@H](CO)NC(=O)[C@H](CC(=O)O)NC(=O)[C@H](CCC(=O)O)NC(=O)[C@H](CCCNC(=N)N)NC(=O)CNC(=O)[C@H](CCC(=O)O)NC(=O)[C@@H](N)Cc1ccccc1)C(=O)N[C@@H](Cc1ccccc1)C(=O)N[C@@H](C)C(=O)O [compound 704]
